Literature values in patent US12102640B2, “Use of dopamine and serotonin receptor antagonists for treatment in a subject with retinal degeneration” (United States Government as represented by the Department …, priority 2015, dated 2024).

Amino acid sequences for entries named in this document (tags omitted).
UniProt P21917, whole entry: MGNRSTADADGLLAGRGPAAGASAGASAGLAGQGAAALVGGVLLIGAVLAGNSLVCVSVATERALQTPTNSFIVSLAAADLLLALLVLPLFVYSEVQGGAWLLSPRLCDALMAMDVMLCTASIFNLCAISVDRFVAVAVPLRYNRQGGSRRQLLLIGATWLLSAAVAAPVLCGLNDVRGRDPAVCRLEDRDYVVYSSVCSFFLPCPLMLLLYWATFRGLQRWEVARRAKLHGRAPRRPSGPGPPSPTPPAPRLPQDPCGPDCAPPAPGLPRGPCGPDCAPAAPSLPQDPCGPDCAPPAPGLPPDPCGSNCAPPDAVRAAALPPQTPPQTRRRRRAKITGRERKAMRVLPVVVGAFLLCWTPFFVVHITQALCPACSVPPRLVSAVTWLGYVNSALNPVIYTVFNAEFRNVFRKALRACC

Molecular target: D4 receptor (Homo sapiens, UniProt P21917)
Details: cited from earlier work

For `Cl.Cl.Cl.Clc1ccc(N2CCN(Cc3c[nH]c4ncccc34)CC2)cc1` [L-745,870, 3-(4-[4-Chlorophenyl]piperazin-1-yl)-methyl-1-H-pyrrolo[2,3-b]pyridinetrihydrochloride], which “selectivity among dopamine D2-like receptors” value is on record?
Its value is “selective for D4 receptor”.
